Earlier results as cited in US20030024618A1, “Gas-generating agent composition comprising triazine derivative” (published 2003).

Test system: rat

Which “LD50 (oral-rat)” value does the source give for `NNc1nc(NN)nc(NN)n1` here?
The value was 3,161 mg/kg.
